## Apparent affinities of Ab-95 variants for a coronavirus HR2 peptide

The measurements come from Engelhart et al. 2022 (doi:10.1038/s41597-022-01779-4) through the FLAb antibody collection.

Binding partner: SARS-CoV-2 spike HR2 peptide, sequence PDVDLGDISGINAS.

Ab-95 is the parent antibody, in scFv form: VH, then a 15-residue (Gly4Ser)3 linker, then VL. The heavy chain is unchanged in all variants.
VH: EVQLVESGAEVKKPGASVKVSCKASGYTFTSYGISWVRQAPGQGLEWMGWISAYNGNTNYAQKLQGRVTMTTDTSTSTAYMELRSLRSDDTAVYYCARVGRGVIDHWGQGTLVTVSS
VL: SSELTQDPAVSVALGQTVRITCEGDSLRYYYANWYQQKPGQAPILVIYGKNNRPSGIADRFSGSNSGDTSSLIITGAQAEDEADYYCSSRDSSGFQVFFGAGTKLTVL

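The parent was found by panning a naive human phage display library on the peptide. AAYL52 was designed without a model: most single CDR substitutions and a random sample of double and triple ones. Affinity was read by AlphaSeq, a pooled yeast mating assay with surface-displayed partners. Mating (16 h, 30 °C) was followed by selection of diploids and sequencing of their barcodes. Scores were corrected for input abundance and mapped to Kd with protein pairs of known affinity run in the same pool. Mating was done three times.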

Changes read parent residue, position, new residue, counted from the first residue of the VL shown.
Values are apparent Kd, the geometric mean of the replicates that gave a signal; lower means stronger binding.
Where no diploid with the target was found in any replicate, the entry reads "nd": below detection, most likely a poor binder, though not proof of it.
Empty control strains, which show no peptide, gave a signal in 28% of pairings with library AAYL52; the median was 8.2 µM and 95% of these signals were weaker than 800 nM. No background was subtracted. Also given: how often the same scFv was detected with the empty control strains.

The variant Y31D N52H S55R showed 53 nM (3 of 3 replicates; controls 4 of 9).
The variant N52W P54V showed 2.1 µM (1 of 3 replicates; controls 1 of 9).
The variant G24S S26L F98L showed 2.9 µM (3 of 3 replicates; controls 0 of 9).
The variant K50E N52G R90M showed 410 nM (3 of 3 replicates; controls 3 of 9).
The variant D25K Y31I N33H showed 13 µM (1 of 3 replicates; controls 1 of 9).
The variant S55P F95T showed 520 nM (3 of 3 replicates; controls 6 of 9).
The variant N33R G49Q S88P showed 190 µM (1 of 3 replicates; controls 4 of 9).
The variant E23P D25Q S26Y showed 3.3 µM (1 of 3 replicates; controls 0 of 9).
The variant Y29R N33R F98I showed nd (0 of 3 replicates; controls 3 of 9).
The variant G24A A32M S55K showed 2.0 µM (3 of 3 replicates; controls 0 of 9).
The variant G24Q G49S Q96S showed 2.0 µM (2 of 3 replicates; controls 4 of 9).
The variant L27P R28L S55I showed 950 nM (3 of 3 replicates; controls 5 of 9).
The variant N33W F95Q Q96N showed 10 µM (1 of 3 replicates; controls 0 of 9).
The variant L27T N51M F95R showed 3.2 µM (2 of 3 replicates; controls 4 of 9).
The variant S26W A32S S55D showed 15 nM (3 of 3 replicates; controls 2 of 9).
The variant Y31P P54L S89E showed 180 nM (3 of 3 replicates; controls 2 of 9).
The variant R28K S55Y Q96D showed 220 nM (3 of 3 replicates; controls 0 of 9).
The variant E23D K50M F95M showed 2.8 µM (3 of 3 replicates; controls 8 of 9).
The variant N52I R90E D91M showed 15 µM (2 of 3 replicates; controls 4 of 9).
The variant L27A A32E G94W showed 4.7 µM (1 of 3 replicates; controls 2 of 9).
The variant D25T P54Q V97E showed 14 µM (1 of 3 replicates; controls 2 of 9).
The variant R53N S92K Q96E showed 1.4 µM (3 of 3 replicates; controls 1 of 9).
The variant R28E A32Q D91I showed nd (0 of 3 replicates; controls 1 of 9).
The variant S26V S55V S89P showed 7.0 µM (3 of 3 replicates; controls 6 of 9).
The variant G24E S93P F95W showed 16 µM (2 of 3 replicates; controls 7 of 9).
The variant N52M S93T V97L showed 1.0 µM (3 of 3 replicates; controls 1 of 9).
The variant Y29V D91A G94A showed 1.3 µM (1 of 3 replicates; controls 1 of 9).
The variant G49V K50V showed 12 µM (2 of 3 replicates; controls 3 of 9).
The variant L27F R28S N51K showed 22 µM (2 of 3 replicates; controls 1 of 9).
The variant L27I R53E D91M showed nd (0 of 3 replicates; controls 3 of 9).
The variant R53S P54R R90G showed 34 µM (1 of 3 replicates; controls 3 of 9).
The variant E23N N33A S92R showed 8.8 µM (2 of 3 replicates; controls 1 of 9).